Measurements from patent US20240360179A1, “STAPLED PEPTIDES AND METHODS THEREOF” (FOG PHARMACEUTICALS, INC., priority 2021, published 2024).

By UniProt entry, the sequences of proteins in these tests, tags left out.
UniProt P35222, whole entry: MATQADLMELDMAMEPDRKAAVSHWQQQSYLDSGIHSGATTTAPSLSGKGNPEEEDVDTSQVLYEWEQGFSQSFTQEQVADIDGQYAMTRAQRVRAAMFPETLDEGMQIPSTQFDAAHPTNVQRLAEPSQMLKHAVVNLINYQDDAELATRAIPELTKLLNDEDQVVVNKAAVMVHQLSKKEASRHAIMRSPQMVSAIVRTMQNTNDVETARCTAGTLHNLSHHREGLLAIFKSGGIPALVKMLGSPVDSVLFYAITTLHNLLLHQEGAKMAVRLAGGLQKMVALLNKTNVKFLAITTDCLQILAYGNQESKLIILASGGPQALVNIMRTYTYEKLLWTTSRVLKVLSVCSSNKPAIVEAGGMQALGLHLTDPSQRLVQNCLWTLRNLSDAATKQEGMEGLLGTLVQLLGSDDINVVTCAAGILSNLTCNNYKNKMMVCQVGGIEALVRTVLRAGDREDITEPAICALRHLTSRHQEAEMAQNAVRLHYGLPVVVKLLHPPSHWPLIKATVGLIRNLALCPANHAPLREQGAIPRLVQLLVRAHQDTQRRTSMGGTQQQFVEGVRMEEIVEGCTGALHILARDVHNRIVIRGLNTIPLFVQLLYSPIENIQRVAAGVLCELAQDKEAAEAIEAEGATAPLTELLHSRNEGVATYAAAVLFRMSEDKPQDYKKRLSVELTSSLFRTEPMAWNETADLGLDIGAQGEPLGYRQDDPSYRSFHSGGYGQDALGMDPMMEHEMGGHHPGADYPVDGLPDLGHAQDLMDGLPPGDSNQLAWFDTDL

The substances below were run against T1, full-length B-Catenin (Uniprot ID P35222) (Homo sapiens, UniProt P35222). Details: competition fluorescence polarization; read-out: beta-Catenin FP IC50.
T1 construct: 10 nM full-length B-Catenin (Uniprot ID P35222)
Format: binding

Row | Substance | IC50 [nM]
1 | Ac-PL3-Asp-Leu-B5-Asp-Asp-Ala-Ala-Phe-dLys*3-PyrS2-3Thi-BztA-GlnR*3-NH2 [I-2] | < 50
2 | Ac-PL3-Asp-Leu-B5-Asp-Asp-DGlnR*3-Ala-Phe-Lys*3-PyrS2-3Thi-BztA-Gln-NH2 [I-609] | < 50
3 | Ac-PL3-Asp-Leu-B5-Asp-Asp-dLys*3-Ala-Phe-GlnR*3-PyrS2-3Thi-BztA-Gln-NH2 [I-608] | < 50
4 | Ac-PL3-Asp-Npg-B5-Asp-3BOH2F-Aib-Ala-Phe-Lys*3-PyrS2-3Thi-BztA-GlnR*3-Ala-NH2 [I-1188] | 50 to 200
5 | Ac-PL3-Asp-Npg-B5-Asp-3COOHF-Aib-Ala-2FF-Lys*3-PyrS2-3Thi-BztA-GlnR*3-Ala-NH2 [I-581] | < 50
6 | Ac-PL3-Asp-Npg-B5-Asp-3COOHF-Aib-Ala-2NapA-Lys*3-PyrS2-Phe-34ClF-GlnR*3-Ala-NH2 [I-482] | < 50
7 | Ac-PL3-Asp-Npg-B5-Asp-3COOHF-Aib-Ala-3BrF-Lys*3-PyrS2-3Thi-BztA-GlnR*3-Ala-NH2 [I-579] | < 50
8 | Ac-PL3-Asp-Npg-B5-Asp-3COOHF-Aib-Ala-3CNF-Lys*3-PyrS2-3Thi-BztA-GlnR*3-Ala-NH2 [I-587] | < 50
9 | Ac-PL3-Asp-Npg-B5-Asp-3COOHF-Aib-Ala-3ClF-Lys*3-PyrS2-3Thi-BztA-GlnR*3-Ala-NH2 [I-577] | < 50
10 | Ac-PL3-Asp-Npg-B5-Asp-3COOHF-Aib-Ala-3FF-Lys*3-PyrS2-3Thi-BztA-GlnR*3-Ala-NH2 [I-575] | < 50
11 | Ac-PL3-Asp-Npg-B5-Asp-3COOHF-Aib-Ala-3MeF-Lys*3-PyrS2-3Thi-BztA-GlnR*3-Ala-NH2 [I-591] | < 50
12 | Ac-PL3-Asp-Npg-B5-Asp-3COOHF-Aib-Ala-4BrF-Lys*3-PyrS2-3Thi-BztA-GlnR*3-Ala-NH2 [I-573] | < 50
13 | Ac-PL3-Asp-Npg-B5-Asp-3COOHF-Aib-Ala-4CNF-Lys*3-PyrS2-3Thi-BztA-GlnR*3-Ala-NH2 [I-585] | < 50
14 | Ac-PL3-Asp-Npg-B5-Asp-3COOHF-Aib-Ala-4ClF-Lys*3-PyrS2-3Thi-BztA-GlnR*3-Ala-NH2 [I-571] | < 50
15 | Ac-PL3-Asp-Npg-B5-Asp-3COOHF-Aib-Ala-4FF-Lys*3-PyrS2-3Thi-BztA-GlnR*3-Ala-NH2 [I-569] | < 50
16 | Ac-PL3-Asp-Npg-B5-Asp-3COOHF-Aib-Ala-4MeF-Lys*3-PyrS2-3Thi-BztA-GlnR*3-Ala-NH2 [I-589] | < 50
17 | Ac-PL3-Asp-Npg-B5-Asp-3COOHF-Aib-Ala-Aic-Lys*3-PyrS2-3Thi-BztA-GlnR*3-Ala-NH2 [I-593] | > 1000
18 | Ac-PL3-Asp-Npg-B5-Asp-3COOHF-Aib-Ala-Phe-Lys*3-Az3-2F3MeF-BztA-GlnR*3-Ala-NH2 [I-946] | < 50
19 | Ac-PL3-Asp-Npg-B5-Asp-3COOHF-Aib-Ala-Phe-Lys*3-PyrS2-2ClF-2NapA-GlnR*3-Ala-NH2 [I-488] | < 50
20 | Ac-PL3-Asp-Npg-B5-Asp-3COOHF-Aib-Ala-Phe-Lys*3-PyrS2-2F3MeF-34ClF-GlnR*3-Phe-NH2 [I-866] | 50 to 200
21 | Ac-PL3-Asp-Npg-B5-Asp-3COOHF-Aib-Ala-Phe-Lys*3-PyrS2-2F3MeF-BztA-GlnR*3-Lys-NH2 [I-1628] | < 50

Row | Substance | IC50 [nM]
22 | Ac-PL3-Asp-Npg-B5-Asp-3COOHF-Aib-Ala-Phe-Lys*3-PyrS2-2FF-34ClF-GlnR*3-NH2 [I-1537] | < 50
23 | Ac-PL3-Asp-Npg-B5-Asp-3COOHF-Aib-Ala-Phe-Lys*3-PyrS2-2FF-BztA-GlnR*3-NH2 [I-1541] | < 50
24 | Ac-PL3-Asp-Npg-B5-Asp-3COOHF-Aib-Ala-Phe-Lys*3-PyrS2-2MeF-BztA-GlnR*3-NH2 [I-1545] | 200 to 750
25 | Ac-PL3-Asp-Npg-B5-Asp-3COOHF-Aib-Ala-Phe-Lys*3-PyrS2-2NH2F-BztA-GlnR*3-Ala-NH2 [I-1735] | 200 to 750
26 | Ac-PL3-Asp-Npg-B5-Asp-3COOHF-Aib-Ala-Phe-Lys*3-PyrS2-2NH2F-BztA-GlnR*3-Ala-NH2 [I-1736] | < 50
27 | Ac-PL3-Asp-Npg-B5-Asp-3COOHF-Aib-Ala-Phe-Lys*3-PyrS2-2PhF-34ClF-GlnR*3-Ala-NH2 [I-950] | 50 to 200
28 | Ac-PL3-Asp-Npg-B5-Asp-3COOHF-Aib-Ala-Phe-Lys*3-PyrS2-2PhF-34ClF-GlnR*3-Leu-Ser-NH2 [I-954] | 200 to 750
29 | Ac-PL3-Asp-Npg-B5-Asp-3COOHF-Aib-Ala-Phe-Lys*3-PyrS2-2PhF-BztA-GlnR*3-Ala-NH2 [I-949] | 50 to 200
30 | Ac-PL3-Asp-Npg-B5-Asp-3COOHF-Aib-Ala-Phe-Lys*3-PyrS2-2PhF-BztA-GlnR*3-Leu-Ser-NH2 [I-952] | 200 to 750
31 | Ac-PL3-Asp-Npg-B5-Asp-3COOHF-Aib-Ala-Phe-Lys*3-PyrS2-3Thi-2NapA-GlnR*3-Ala-NH2 [I-486] | < 50
32 | Ac-PL3-Asp-Npg-B5-Asp-3COOHF-Aib-Ala-Phe-Lys*3-PyrS2-3Thi-34ClF-GlnR*3-Ala-Ala-Ala-[mPEG8]-Lys [I-1707] | < 50
33 | Ac-PL3-Asp-Npg-B5-Asp-3COOHF-Aib-Ala-Phe-Lys*3-PyrS2-3Thi-34MeF-GlnR*3-NH2 [I-1098] | < 50
34 | Ac-PL3-Asp-Npg-B5-Asp-3COOHF-Aib-Ala-Phe-Lys*3-PyrS2-3Thi-BztA-GlnR*3-Aib-Aib-NH2 [I-410] | < 50
35 | Ac-PL3-Asp-Npg-B5-Asp-3COOHF-Aib-Ala-Phe-Lys*3-PyrS2-3Thi-BztA-GlnR*3-Ala-Ala-Ala-Ala-Ala-Ala-Ala-NH2 [I-784] | < 50
36 | Ac-PL3-Asp-Npg-B5-Asp-3COOHF-Aib-Ala-Phe-Lys*3-PyrS2-3Thi-BztA-GlnR*3-Ala-Ala-Ala-GlnR**3-Ala-Ala-Ala-Lys**3-NH2 [I-1160] | < 50
37 | Ac-PL3-Asp-Npg-B5-Asp-3COOHF-Aib-Ala-Phe-Lys*3-PyrS2-3Thi-BztA-GlnR*3-Ala-Ala-Ala-Leu-Leu-Leu-NH2 [I-810] | 50 to 200
38 | Ac-PL3-Asp-Npg-B5-Asp-3COOHF-Aib-Ala-Phe-Lys*3-PyrS2-3Thi-BztA-GlnR*3-Ala-Ala-Ala-Leu-Leu-NH2 [I-808] | 50 to 200
39 | Ac-PL3-Asp-Npg-B5-Asp-3COOHF-Aib-Ala-Phe-Lys*3-PyrS2-3Thi-BztA-GlnR*3-Ala-Ala-Ala-[Ac]Lys-NH2 [I-1394] | < 50
40 | Ac-PL3-Asp-Npg-B5-Asp-3COOHF-Aib-Ala-Phe-Lys*3-PyrS2-3Thi-BztA-GlnR*3-Ala-Ala-Ala-[PEG4triPEG16]Lys-NH2 [I-1525] | < 50
41 | Ac-PL3-Asp-Npg-B5-Asp-3COOHF-Aib-Ala-Phe-Lys*3-PyrS2-3Thi-BztA-GlnR*3-Ala-Ala-Ala-[PEG4triPEG36]Lys-NH2 [I-1526] | < 50
42 | Ac-PL3-Asp-Npg-B5-Asp-3COOHF-Aib-Ala-Phe-Lys*3-PyrS2-3Thi-BztA-GlnR*3-Ala-Ala-Ala-[mPEG8]Lys-NH2 [I-1408] | < 50

Row | Substance | IC50 [nM]
43 | Ac-PL3-Asp-Npg-B5-Asp-3COOHF-Aib-Ala-Phe-Lys*3-PyrS2-3Thi-BztA-GlnR*3-Ala-Ala-Ala-[mPEG16]Lys-NH2 [I-1409] | < 50
44 | Ac-PL3-Asp-Npg-B5-Asp-3COOHF-Aib-Ala-Phe-Lys*3-PyrS2-3Thi-BztA-GlnR*3-Ala-Ala-Ala-[mPEG37]Lys-NH2 [I-1410] | < 50
45 | Ac-PL3-Asp-Npg-B5-Asp-3COOHF-Aib-Ala-Phe-Lys*3-PyrS2-3Thi-BztA-GlnR*3-Ala-Ala-Arg-Ala-Ala-Ala-Ala-NH2 [I-1155] | < 50
46 | Ac-PL3-Asp-Npg-B5-Asp-3COOHF-Aib-Ala-Phe-Lys*3-PyrS2-3Thi-BztA-GlnR*3-Ala-Ala-Arg-Ala-Ala-Ala-Arg-NH2 [I-1157] | < 50
47 | Ac-PL3-Asp-Npg-B5-Asp-3COOHF-Aib-Ala-Phe-Lys*3-PyrS2-3Thi-BztA-GlnR*3-Ala-Ala-GlnR**3-Ala-Ala-Ala-Lys**3-NH2 [I-1159] | < 50
48 | Ac-PL3-Asp-Npg-B5-Asp-3COOHF-Aib-Ala-Phe-Lys*3-PyrS2-3Thi-BztA-GlnR*3-Ala-Ala-Lys-Ala-Ala-Ala-Lys-NH2 [I-1158] | < 50
49 | Ac-PL3-Asp-Npg-B5-Asp-3COOHF-Aib-Ala-Phe-Lys*3-PyrS2-3Thi-BztA-GlnR*3-Ala-Ala-[Ac]Lys-NH2 [I-1392] | < 50
50 | Ac-PL3-Asp-Npg-B5-Asp-3COOHF-Aib-Ala-Phe-Lys*3-PyrS2-3Thi-BztA-GlnR*3-Ala-Ala-[mPEG4]Lys-NH2 [I-1402] | 50 to 200
51 | Ac-PL3-Asp-Npg-B5-Asp-3COOHF-Aib-Ala-Phe-Lys*3-PyrS2-3Thi-BztA-GlnR*3-Ala-Ala-[mPEG8]Lys-NH2 [I-1403] | < 50
52 | Ac-PL3-Asp-Npg-B5-Asp-3COOHF-Aib-Ala-Phe-Lys*3-PyrS2-3Thi-BztA-GlnR*3-Ala-Ala-[mPEG16]Lys-NH2 [I-1404] | < 50
53 | Ac-PL3-Asp-Npg-B5-Asp-3COOHF-Aib-Ala-Phe-Lys*3-PyrS2-3Thi-BztA-GlnR*3-Ala-Arg-Ala-Ala-Ala-Arg-Ala-NH2 [I-1156] | < 50
54 | Ac-PL3-Asp-Npg-B5-Asp-3COOHF-Aib-Ala-Phe-Lys*3-PyrS2-3Thi-BztA-GlnR*3-Ala-NHMe [I-1400] | < 50
55 | Ac-PL3-Asp-Npg-B5-Asp-3COOHF-Aib-Ala-Phe-Lys*3-PyrS2-3Thi-BztA-GlnR*3-Leu-Ser-Leu-NH2 [I-466] | < 50
56 | Ac-PL3-Asp-Npg-B5-Asp-3COOHF-Aib-Ala-Phe-Lys*3-PyrS2-3Thi-BztA-GlnR*3-Thr-Ser-Ala-NH2 [I-1472] | < 50
57 | Ac-PL3-Asp-Npg-B5-Asp-3COOHF-Aib-Ala-Phe-Lys*3-PyrS2-3Thi-BztA-GlnR*3-Thr-Ser-Leu-NH2 [I-1473] | < 50
58 | Ac-PL3-Asp-Npg-B5-Asp-3COOHF-Aib-Ala-Phe-Lys*3-PyrS2-3Thi-BztA-GlnR*3-Thr-Ser-Leu-Pro-NH2 [I-1474] | < 50
59 | Ac-PL3-Asp-Npg-B5-Asp-3COOHF-Aib-Ala-Phe-Lys*3-PyrS2-3Thi-BztA-GlnR*3-Thr-Ser-Pro-NH2 [I-1477] | < 50
60 | Ac-PL3-Asp-Npg-B5-Asp-3COOHF-Aib-Ala-Phe-Lys*3-PyrS2-3Thi-BztA-GlnR*3-Thr-Ser-Thr-NH2 [I-1475] | < 50
61 | Ac-PL3-Asp-Npg-B5-Asp-3COOHF-Aib-Ala-Phe-Lys*3-PyrS2-3Thi-BztA-GlnR*3-Thr-Ser-Thr-Pro-NH2 [I-1476] | < 50
